Measurements reported in paper PMC11593560, “Disruption of the Physical Interaction Between Carbonic Anhydrase IX and the Monocarboxylate Transporter 4 Impacts Lactate Transport in Breast Cancer Cells” (International Journal of Molecular Sciences, 2024).

Tests used:
[1] = target: monocarboxylate transporter 1 (human (endogenous in MDA-MB-231 and MCF-7)) (UniProt P53985); assay: proximity ligation; Duolink in situ PLA on hypoxic MCF-7 cells, control medium without BGal2C; signals counted per nucleus
[2] = target: monocarboxylate transporter 1 (human (endogenous in MDA-MB-231 and MCF-7)) (UniProt P53985); assay: proximity ligation; Duolink in situ PLA on hypoxic MDA-MB-231 cells, control medium without BGal2C; signals counted per nucleus
[3] = target: monocarboxylate transporter 4 (human (endogenous in MDA-MB-231)) (UniProt O15427); assay: as above

carbonic anhydrase IX (from UniProt Q16790 38-459) (enzyme)
PLA signals/nucleus (signals/nucleus) [1]: 10.9 | PLA signals/nucleus (signals/nucleus) [2]: 8.7 | PLA signals/nucleus (signals/nucleus) [3]: 4.6
